Laboratory results taken from patent publication US20030073731A1, “Compositions and methods of the use thereof achiral analogues of CC-1065 and the duocarmycins” (priority 2000, published 2003).

Tests used:
NCI-H460 = assay: NCI in-vitro cytotoxicity screen, Non-Small Cell Lung Cancer panel; format: cell-based; conditions: Homo sapiens, NCI-H460, read-out: LC50
MCF7/ADR-RES = conditions: read-out: LC50
MDA-MB-231/ATCC = conditions: read-out: LC50
[1] = test system: panel of 60 human cancer cell lines; conditions: 48 hour exposure

COC(=O)c1[nH]c2c(O)cc(NC(=O)c3cc4cc(OC)c(OC)c(OC)c4[nH]3)c(CCCl)c2c1C(=O)OC [Compound 22, Dimethyl 4-(2-chloroethyl)-7-hydroxy-5-(5,6,7-trimethoxyindole-2-carboxamido)indole-2,3-dicarboxylate] showed a CC50 (NCI-H460) of 27.4 µM.
For “4-(2-Chloroethyl)-3-[5-(5-benzofuran-2-carboxamido)indole-2-carboxamido]phenol [Compound 1]”, the CC50 (CCRF-CEM) was > 100 µM, the CC50 (K-562) was > 100 µM and the CC50 (MOLT-4) was > 100 µM. The CC50 (RPMI-8226) was > 100 µM, the CC50 (SR) was > 100 µM and the CC50 (A549/ATCC) was 24.8 µM. It also gave a CC50 (EKVX) of 13.7 µM, a CC50 (HOP-62) of 19.5 µM and a CC50 (HOP-92) of 15.6 µM. It also gave a CC50 (NCI-H226) of 44.4 µM, a CC50 (NCI-H23) of 6.84 µM and a CC50 (NCI-H332M) of 33 µM. For the same compound, the CC50 (NCI-H522) was 9.33 µM, the CC50 (HCC-2998) was 7.22 µM and the CC50 (HCT-116) was 24.3 µM. The CC50 (HCT-15) was 16.7 µM, the CC50 (HT29) was 96.6 µM and the CC50 (KM12) was 65 µM. It also gave a CC50 (SW-620) of 53.5 µM, a CC50 (SF-268) of 57.3 µM and a CC50 (SF-295) of 24.2 µM. The CC50 (SF-539) was 9 µM, the CC50 (SNB-19) was 51.6 µM and the CC50 (SNB-75) was 59 µM. For the same compound, the CC50 (U251) was 53.5 µM, the CC50 (LOX IMVI) was 42.2 µM and the CC50 (MALME-3M) was 6.87 µM. The CC50 (M14) was 6.81 µM, the CC50 (SK-MEL-2) was 5.43 µM and the CC50 (SK-MEL-28) was 2.14 µM. The CC50 (SK-MEL-5) was 6.44 µM, the CC50 (UACC-257) was 6.18 µM and the CC50 (UACC-62) was 6.18 µM. The CC50 (IGROV1) was 7.77 µM, the CC50 (OVCAR-3) was 10.9 µM and the CC50 (OVCAR-4) was 13.5 µM. For the same compound, the CC50 (OVCAR-5) was 20 µM, the CC50 (OVCAR-8) was 8.12 µM and the CC50 (SK-OV-3) was 26.7 µM. The CC50 (786-0) was 98.3 µM, the CC50 (ACHN) was 23.4 µM and the CC50 (CAKI-1) was 27.7 µM. For the same compound, the CC50 (SN12C) was 43.5 µM, the CC50 (TK-10) was 19.9 µM and the CC50 (UO-31) was 20 µM. The CC50 (PC-3) was 18.2 µM, the CC50 (DU-145) was 27.4 µM and the CC50 (MCF7) was 5 µM. For the same compound, the CC50 (MCF7/ADR-RES) was 8.7 µM, the CC50 (MDA-MB-231/ATCC) was 49.6 µM and the CC50 (HS 578T) was > 100 µM. For the same compound, the CC50 (MDA-MB-435) was 7.45 µM, the CC50 (MDA-N) was 19.7 µM and the CC50 (BT-549) was > 100 µM. The “cytotoxic activity in the NCI screen” value [1] was “activity in the micromolar range”.
